{"sequences": {"note": "Protein sequences, listed by entry. Tags and fused reporters are not part of them. Lines headed by an entry give the natural chain unless they say otherwise; changes in a name come on top.", "UniProt P07650": "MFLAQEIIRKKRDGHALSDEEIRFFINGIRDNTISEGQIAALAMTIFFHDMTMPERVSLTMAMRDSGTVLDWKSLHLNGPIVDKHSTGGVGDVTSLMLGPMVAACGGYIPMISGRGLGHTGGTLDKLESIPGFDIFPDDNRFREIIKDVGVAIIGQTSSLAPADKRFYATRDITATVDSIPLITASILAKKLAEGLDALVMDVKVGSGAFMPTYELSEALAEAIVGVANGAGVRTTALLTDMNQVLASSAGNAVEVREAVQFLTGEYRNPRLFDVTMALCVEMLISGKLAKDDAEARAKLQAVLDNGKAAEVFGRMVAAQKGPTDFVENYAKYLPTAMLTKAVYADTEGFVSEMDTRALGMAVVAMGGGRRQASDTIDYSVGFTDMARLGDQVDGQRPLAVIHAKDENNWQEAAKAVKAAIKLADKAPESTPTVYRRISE"}, "source": "paper PMC10143232", "about": "“Dihydropyrimidone Derivatives as Thymidine Phosphorylase Inhibitors: Inhibition Kinetics, Cytotoxicity, and Molecular Docking” (Molecules, 2023)", "key": {"[1]": {"target": "T1, Thymidine phosphorylase (TP) (Escherichia coli, UniProt P07650)", "T1 construct": "purchased Sigma Aldrich, USA", "assay": "Thymidine phosphorylase inhibition assay (spectrophotometric, 290 nm)", "format": "biochemical", "conditions": "E. coli TP; n = 3; NA: not active; read-out: Thymidine Phosphorylase Inhibitory Activity IC50 ± SEM", "description": "Thymidine phosphorylase (source: E. coli, EC Number 2.4.2.4), thymidine (substrate), and potassium phosphate monobasic (as buffer) were acquired from Sigma Aldrich, USA. The 7-deazaxanthine (standard inhibitor) was acquired from Santa Cruz Biotechnology, Inc., Santa Cruz, CA, USA. Dimethylsulfoxide (DMSO), used as a solvent, was obtained from Fisher Scientific, Schwerte, Germany.\nReaction was performed in 96-well plates and in triplicates. The 200 µL reaction mixture was comprised of 10 µL of the test compound (0.5 mM; dissolved in DMSO), 150 µL of potassium phosphate buffer (pH 7.0, 50 mM), and 20 µL of TP enzyme (0.058 unit/well). The 96-well plate containing all these reagents was then incubated at 30 °C for 10 min. After 10 min, 20 µL of 1.5 mM substrate, i.e., thymidine was added, and changes in O.D. (optical density) were recorded at 290 nm for 10 min by using microtiter plate reader (SpectraMax 384, Molecular Devices, San Jose, CA, USA).\nSoftMax Pro 4.8 software (Molecular Devices, San Jose, CA, USA) was used to analyse the results. Percent inhibition was calculated by using Microsoft Excel by applying the following formula: % Inhibition=100−(O.D.Test compound/O.D.Control)×100 where O.D. represented the optical density.\nResults were presented as means ± SEM (standard error of mean) (n = 3). […]"}, "[2]": {"target": "T1, Thymidine phosphorylase (TP)", "assay": "Mechanistic (kinetic) studies of TP inhibition", "format": "biochemical, E. coli", "description": "Kinetic studies are used for the investigation of chemical reactions in terms of their reaction rates, reaction mechanisms, and the factors that affect these parameters. Herein, it is used determine the type/mechanism of inhibition of dihydropyrimidone derivatives. In mechanistic studies, TP (0.058 U/200 µL) was incubated with test compounds (200–500 µM) at 30 °C for 10 min. The reaction was then initiated with the addition of different concentrations of thymidine (ranging between 0.1875 and 1.5 mM). Cleavage of thymidine was monitored continuously for 10 min, at 290 nm, by using ELISA plate reader (SpectraMax 384, Molecular Devices, San Jose, CA, USA).\nResults were presented as means ± SEM (standard error of mean) (n = 3). EZ-FIT, enzyme kinetics software (Perrella Scientific, Inc., Amherst, GA, USA) was used to calculate the IC50 values. In order to analyse the kinetic parameter, Grafit version 7.0 (Erithacus Software Ltd., Horley, UK) was used."}}}
{"smiles": "O=c1[nH]c(=O)c2cc[nH]c2[nH]1", "note": "[7-Deazaxanthine, reference compound]", "values": [{"measurement": "IC50", "setting": "[1]", "result": "41 ± 1.6", "unit": "µM"}, {"measurement": "Ki", "setting": "[2]", "result": "45 ± 0.003", "unit": "µM"}]}
